The source of these data is patent publication US20240368161A1, “CYCLOPROPANECARBOXAMIDE-CONTAINING COMPOUNDS AND APPLICATION THEREOF” (CGENETECH (SUZHOU, CHINA) CO., LTD., priority 2022, published 2024).

Amino acid sequences for entries named in this document (tags omitted). Residues count along the entry.
UniProt O60674, 826-1132 limits assumed: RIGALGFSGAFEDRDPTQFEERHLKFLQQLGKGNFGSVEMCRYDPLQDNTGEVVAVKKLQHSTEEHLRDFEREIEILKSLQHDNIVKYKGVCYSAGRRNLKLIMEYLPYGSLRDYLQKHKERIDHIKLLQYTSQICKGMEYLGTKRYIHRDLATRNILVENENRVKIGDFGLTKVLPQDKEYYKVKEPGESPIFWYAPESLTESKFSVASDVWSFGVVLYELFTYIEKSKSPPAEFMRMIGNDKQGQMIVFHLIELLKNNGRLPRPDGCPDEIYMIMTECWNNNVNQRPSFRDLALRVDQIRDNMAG
UniProt P52333, 795-1124 limits assumed: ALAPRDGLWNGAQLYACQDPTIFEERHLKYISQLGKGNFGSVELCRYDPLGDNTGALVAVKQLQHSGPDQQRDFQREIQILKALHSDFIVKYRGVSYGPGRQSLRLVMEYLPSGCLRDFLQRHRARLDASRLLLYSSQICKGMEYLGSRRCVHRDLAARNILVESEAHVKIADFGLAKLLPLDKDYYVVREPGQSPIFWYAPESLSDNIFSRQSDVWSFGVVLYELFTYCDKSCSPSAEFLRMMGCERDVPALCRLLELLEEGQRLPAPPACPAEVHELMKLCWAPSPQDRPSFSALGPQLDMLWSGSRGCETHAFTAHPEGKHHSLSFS
UniProt P23458, whole entry: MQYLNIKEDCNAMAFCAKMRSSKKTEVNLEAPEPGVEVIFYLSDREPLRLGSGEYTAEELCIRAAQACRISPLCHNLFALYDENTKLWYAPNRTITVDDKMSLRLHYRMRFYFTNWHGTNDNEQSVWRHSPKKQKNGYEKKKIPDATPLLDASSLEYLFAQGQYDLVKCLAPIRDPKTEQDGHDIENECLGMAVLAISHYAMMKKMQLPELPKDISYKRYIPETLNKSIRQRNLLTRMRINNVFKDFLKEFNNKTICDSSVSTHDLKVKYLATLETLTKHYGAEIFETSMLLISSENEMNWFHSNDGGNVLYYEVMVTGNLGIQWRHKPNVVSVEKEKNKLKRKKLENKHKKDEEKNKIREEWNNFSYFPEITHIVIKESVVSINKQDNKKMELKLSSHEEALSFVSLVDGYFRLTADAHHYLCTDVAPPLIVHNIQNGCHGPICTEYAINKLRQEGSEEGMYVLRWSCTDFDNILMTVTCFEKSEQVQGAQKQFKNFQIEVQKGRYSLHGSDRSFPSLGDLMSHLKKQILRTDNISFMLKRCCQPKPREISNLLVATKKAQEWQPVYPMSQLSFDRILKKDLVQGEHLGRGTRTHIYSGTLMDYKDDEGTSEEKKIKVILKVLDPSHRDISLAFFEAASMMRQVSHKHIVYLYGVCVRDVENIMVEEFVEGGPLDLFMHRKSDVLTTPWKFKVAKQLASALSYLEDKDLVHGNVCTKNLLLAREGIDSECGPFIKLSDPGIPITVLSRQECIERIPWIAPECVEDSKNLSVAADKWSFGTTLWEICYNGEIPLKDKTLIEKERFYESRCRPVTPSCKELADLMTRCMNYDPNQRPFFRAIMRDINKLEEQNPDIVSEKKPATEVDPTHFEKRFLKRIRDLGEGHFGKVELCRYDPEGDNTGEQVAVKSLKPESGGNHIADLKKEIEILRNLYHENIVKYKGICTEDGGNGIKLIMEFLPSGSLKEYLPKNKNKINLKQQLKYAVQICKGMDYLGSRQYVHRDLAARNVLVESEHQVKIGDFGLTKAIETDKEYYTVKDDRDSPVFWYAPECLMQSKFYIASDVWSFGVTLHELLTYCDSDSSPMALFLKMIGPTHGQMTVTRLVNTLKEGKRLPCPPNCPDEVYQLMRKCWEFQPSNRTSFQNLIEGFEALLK

Common to all, as to assay type: biochemical
The target of one assay is JAK2 (Homo sapiens (Human), UniProt O60674). In words: JAK2 kinase inhibitory activity determination (HTRF Kinase-TK). The note with it: read-out: JAK2 IC50; JAK2 0.008 ng/μL, ATP 4 μM, substrate 1 μM, 2 h. (In general: Time-resolved FRET reads energy transfer from a long-lived donor to a nearby acceptor.)
For the next assay, the target named is JAK3 (Homo sapiens (Human), UniProt P52333). Kind of assay: JAK3 kinase inhibitory activity determination (HTRF Kinase-TK). The following applies: read-out: JAK3 IC50; JAK3 0.1 ng/μL, ATP 3 μM, substrate 1 μM, 3 h.
The next assay concerns the target JAK1 (Homo sapiens (Human), UniProt P23458). Kind of assay: JAK1 kinase inhibitory activity determination (HTRF Kinase-TK). The note with it: read-out: JAK1 IC50; JAK1 0.32 ng/μL, ATP 4 μM, substrate 1 μM, 4 h.

The IC50 is the concentration that gives 50% inhibition. For `O=C(Nc1nc2cccc(-c3ccc(CN4CCS(=O)(=O)CC4)cc3)n2n1)[C@H]1C[C@@H]1F` (relative stereo) [Compound 23-1], the IC50 on JAK2 was 1590 nM; on JAK3, above 10000 nM; on JAK1, 145 nM.

In the case of `O=C(Nc1nc2cccc(-c3ccc(CN4CCS(=O)(=O)CC4)cc3)n2n1)[C@H]1C[C@@H]1F` (relative stereo) [Compound 23-2], the IC50 at JAK2 was 873 nM; on JAK3 it was above 10000 nM; at JAK1, 199 nM.

On to `O=C(Nc1cn2c(-c3ccc(CN4CCS(=O)(=O)CC4)cc3)cccc2n1)[C@H]1C[C@@H]1F` (relative stereo) [Compound 22-2], for which the IC50 at JAK2 came out at 102 nM; on JAK1 it was 279 nM.
